Measured values from ChEMBL document CHEMBL3612054 (Bioorg Med Chem, 2015).

Sequences of proteins named here, by UniProt entry; tags and fusion partners are left off.
UniProt P35372, whole entry: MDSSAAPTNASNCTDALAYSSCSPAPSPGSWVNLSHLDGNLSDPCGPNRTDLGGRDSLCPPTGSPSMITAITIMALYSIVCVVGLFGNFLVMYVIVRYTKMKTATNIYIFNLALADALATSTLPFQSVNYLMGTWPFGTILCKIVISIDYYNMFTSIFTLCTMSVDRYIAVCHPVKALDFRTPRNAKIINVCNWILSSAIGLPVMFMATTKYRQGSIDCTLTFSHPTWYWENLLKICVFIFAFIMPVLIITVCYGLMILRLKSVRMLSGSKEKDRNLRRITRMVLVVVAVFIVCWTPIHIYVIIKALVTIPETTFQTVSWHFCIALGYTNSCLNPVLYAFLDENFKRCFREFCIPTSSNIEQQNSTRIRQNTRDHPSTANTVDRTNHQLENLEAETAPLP

Key:
Homo sapiens = species: Homo sapiens; assay: Selectivity ratio of Ke for cloned human delta opioid receptor to Ke for cloned human kappa opioid receptor
[1] = molecular target: Mu-type opioid receptor (Homo sapiens) (UniProt P35372); assay: Ratio of JDTic Ke to compound Ke for cloned human mu opioid receptor assessed as inhibition of DAMGO-induced [35S]GTPgammaS binding; type: functional

| SMILES | Ratio Ke (Homo sapiens) | Ratio Ke [1] |
| --- | --- | --- |
| CC(C)[C@@H](CN1CCC(C)(c2cccc(F)c2)CC1)NC(=O)[C@H]1Cc2ccc(O)cc2CN1 | 8210 |  |
| CC(C)[C@@H](CN1CCC(c2cccc(F)c2)CC1)NC(=O)[C@H]1Cc2ccc(O)cc2CN1 | 5600 | 7 |
| CC(C)[C@@H](CN1CC[C@@](C)(c2ccccc2)[C@@H](C)C1)NC(=O)[C@H]1Cc2ccc(O)cc2CN1 | 18400 |  |
